By UniProt entry, the sequences of proteins in these tests, tags left out.
UniProt P32245, whole entry: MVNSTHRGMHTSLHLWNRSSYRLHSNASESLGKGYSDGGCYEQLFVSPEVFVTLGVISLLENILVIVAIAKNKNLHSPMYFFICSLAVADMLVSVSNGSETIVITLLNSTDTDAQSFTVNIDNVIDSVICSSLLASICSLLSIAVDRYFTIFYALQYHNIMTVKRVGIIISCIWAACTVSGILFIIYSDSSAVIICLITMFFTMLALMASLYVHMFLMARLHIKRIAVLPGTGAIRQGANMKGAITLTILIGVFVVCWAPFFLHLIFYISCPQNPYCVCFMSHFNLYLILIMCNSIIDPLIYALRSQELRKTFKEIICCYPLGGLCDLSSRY

According to patent US20030064921A1, “Methods and compounds for modulating melanocortin receptor ligand binding and activity” (The Regents of the University of California, priority 1999, published 2003):

Target: T1, human melanocortin receptor 4 (human, UniProt P32245 1-332)
T1 construct: whole, on cells; also called MC4r; MC4R
Experiment: competition radioligand binding on HEK 293 cells stably expressing hMC4R; tracer 125I-NDP-MSH or 125I-AGRP (87-132)
Description: HEK 293 cells stably expressing the human melanocortin receptors (hMCR's) 1-5 are grown in media. […] Concentrations of cold ligand are added from 100 mM -1 nM. Binding reactions are terminated by washing cells twice with MEM 0.2% BSA. The cells are lysed with 0.1 N NaOH 1% Triton X, and radioactivity of the lysate is quantified with a gamma-analytical counter. […] IC₅₀<100 mM is considered a specific binder

B1: N^α-Acetyl-MARP (minimized agouti related protein, human AGRP residues 87-132) (peptide)
peptide: CVRLHESCLGQQVPCCDPCATCYCRFFNAFCYCRKLGTAMNPCSRT
modifications: N-alpha-acetyl at the N-terminus (as synthesized); five disulfide bonds 1-16, 8-22, 15-33, 19-43, 24-31 (MARP numbering)
notes: Chemically synthesized and folded; it is treated as the same molecule
  IC50: 9 nM
